Data as given in patent publication US20180360100A1, “Unexpectedly Enhanced Pigments Compositions and Processes” (SCIENTIFIC HOLDINGS, LLC, priority 2017, published 2018).

Assay: Solubilities of pigments in diluents, terpenes and cannabinoids
Settings: in OBP (dipropylene glycol), nexus, terpenes, cannabinoids
Description: Solubilities of Pigments. The present disclosure encompasses solubility embodiments.

## Curcumins
  solubility of pigment: soluble at necessary levels for full pigmentation of obp, nexus, and terpenes
